Marks after values point to notes of the source that are not given here.
Legend:
[1] = plasma hydromorphone, Predose
clinical = details: human, in vivo, 30 mg
[2] = Mean±sd, plasma hydromorphone, 4 patients
[3] = Subject 1, plasma hydromorphone
[4] = Subject 2, plasma hydromorphone
[5] = Subject 3, plasma hydromorphone
[6] = fourth subject (head empty), plasma hydromorphone

In the case of `CN1CC[C@]23c4c5ccc(O)c4O[C@H]2C(=O)CC[C@H]3[C@H]1C5` [Hydromorphone], the “Concentration, Subject 1” value [1] is reported as 0 ng/mL, the “Concentration, Subject 3” value [1] is reported as 0 ng/mL and the “Concentration, fourth subject (head empty)” value [1] is reported as 0 ng/mL. The “Concentration, Subject 2” value ([1]; sample contains interference at the retention time of hydromorphone) was 1.19* ng/ml, the concentration at 1 h (clinical; [2]) was 3.93 ± 1.91 ng/mL and the concentration at 2 h (clinical; [2]) was 4.59 ± 1.71 ng/mL. It also gave a concentration at 3 h (clinical; [2]) of 4.78 ± 1.36 ng/mL, a concentration at 4 h (clinical; [2]) of 5.65 ± 3 ng/mL and a concentration at 1 h (clinical; [3]) of 2.38 ng/mL. The concentration at 2 h (clinical; [3]) was 2.59 ng/mL, the concentration at 3 h (clinical; [3]) was 3.84 ng/mL and the concentration at 4 h (clinical; [3]) was 2.71 ng/mL. The concentration at 1 h (clinical; [4]) was 6.71 ng/mL, the concentration at 2 h (clinical; [4]) was 6.48 ng/mL and the concentration at 3 h (clinical; [4]) was 6.47 ng/mL. For the same molecule, the concentration at 4 h (clinical; [4]) was 9.7 ng/mL, the concentration at 1 h (clinical; [5]) was 3.46 ng/mL and the concentration at 2 h (clinical; [5]) was 3.63 ng/mL. It also gave a concentration at 3 h (clinical; [5]) of 3.53 ng/mL, a concentration at 4 h (clinical; [5]) of 4.28 ng/mL and a concentration at 1 h (clinical; [6]) of 3.17 ng/mL. The concentration at 2 h (clinical; [6]) was 5.66 ng/mL, the concentration at 3 h (clinical; [6]) was 5.27 ng/mL and the concentration at 4 h (clinical; [6]) was 5.9 ng/mL.

Source: EP0900076B1, “TRANSDERMAL DEVICE” (priority 1996, dated 1997)
